{"source": "ChEMBL document CHEMBL4334453", "about": "“Callistemonols A and B, Potent Antimicrobial Acylphloroglucinol Derivatives with Unusual Carbon Skeletons from Callistemon viminalis” (2019)", "system": "Staphylococcus aureus", "test": "Antibacterial activity against methicillin-resistant Staphylococcus aureus JCSC 4744 incubated overnight by CLSI protocol based microdilution assay", "format": "functional", "data": [{"smiles": "CC[C@H](C)[C@H](NC(=O)CN)C(=O)NCC(=O)N[C@@H](C)C(=O)N[C@H](C(=O)N[C@@H](CC(C)C)C(=O)N[C@@H](CCCCN)C(=O)N[C@H](C(=O)N[C@@H](CC(C)C)C(=O)N[C@H](C(=O)N[C@H](C(=O)NCC(=O)N[C@@H](CC(C)C)C(=O)N1CCC[C@H]1C(=O)N[C@@H](C)C(=O)N[C@@H](CC(C)C)C(=O)N[C@H](C(=O)N[C@@H](CO)C(=O)N[C@@H](Cc1c[nH]c2ccccc12)C(=O)N[C@H](C(=O)N[C@@H](CCCCN)C(=O)N[C@@H](CCCNC(=N)N)C(=O)N[C@@H](CCCCN)C(=O)N[C@@H](CCCNC(=N)N)C(=O)N[C@@H](CCC(N)=O)C(=O)N[C@@H](CCC(N)=O)C(N)=O)[C@@H](C)CC)[C@@H](C)CC)[C@@H](C)O)[C@@H](C)O)C(C)C)C(C)C", "note": "[MELITTIN]", "values": [{"measurement": "MIC", "result": 1.25, "unit": "mg/L"}]}]}
